Data from patent publication US12448433B2, “Human ApoB100 epitopes, methods and uses for modulating inflammatory responses, and treating adverse cardiovascular events, disease and atherosclerosis” (LA JOLLA INSTITUTE FOR ALLERGY AND IMMUNOLOGY, priority 2015, dated 2025).

Target: DQB1*03:02
Assay: Peptide binding to HLA-DQ allele, competition assay
Set-up: species or system human

CC[C@H](C)[C@H](NC(=O)[C@H](Cc1ccc(O)cc1)NC(=O)[C@H](CCC(N)=O)NC(=O)[C@H](CC(=O)O)NC(=O)[C@H](Cc1ccccc1)NC(=O)[C@H](CCC(N)=O)NC(=O)[C@@H](NC(=O)[C@H](CCSC)NC(=O)[C@H](Cc1ccc(O)cc1)NC(=O)[C@@H](NC(=O)[C@H](CC(C)C)NC(=O)[C@H](CCC(N)=O)NC(=O)[C@H](CO)NC(=O)[C@@H](N)CC(C)C)[C@@H](C)O)[C@@H](C)CC)C(=O)O [Peptide 3563.0012]
IC50: 0.642 µM
